The source of these data is US20030055244A1, “Pyridyl-containing spirocyclic compounds as inhibitors of fibrinogen-dependent platelet aggregation” (priority 1999, published 2003).

Amino acid sequences for entries named in this document (tags omitted). Residues count along the entry.
UniProt P05106, 27-788: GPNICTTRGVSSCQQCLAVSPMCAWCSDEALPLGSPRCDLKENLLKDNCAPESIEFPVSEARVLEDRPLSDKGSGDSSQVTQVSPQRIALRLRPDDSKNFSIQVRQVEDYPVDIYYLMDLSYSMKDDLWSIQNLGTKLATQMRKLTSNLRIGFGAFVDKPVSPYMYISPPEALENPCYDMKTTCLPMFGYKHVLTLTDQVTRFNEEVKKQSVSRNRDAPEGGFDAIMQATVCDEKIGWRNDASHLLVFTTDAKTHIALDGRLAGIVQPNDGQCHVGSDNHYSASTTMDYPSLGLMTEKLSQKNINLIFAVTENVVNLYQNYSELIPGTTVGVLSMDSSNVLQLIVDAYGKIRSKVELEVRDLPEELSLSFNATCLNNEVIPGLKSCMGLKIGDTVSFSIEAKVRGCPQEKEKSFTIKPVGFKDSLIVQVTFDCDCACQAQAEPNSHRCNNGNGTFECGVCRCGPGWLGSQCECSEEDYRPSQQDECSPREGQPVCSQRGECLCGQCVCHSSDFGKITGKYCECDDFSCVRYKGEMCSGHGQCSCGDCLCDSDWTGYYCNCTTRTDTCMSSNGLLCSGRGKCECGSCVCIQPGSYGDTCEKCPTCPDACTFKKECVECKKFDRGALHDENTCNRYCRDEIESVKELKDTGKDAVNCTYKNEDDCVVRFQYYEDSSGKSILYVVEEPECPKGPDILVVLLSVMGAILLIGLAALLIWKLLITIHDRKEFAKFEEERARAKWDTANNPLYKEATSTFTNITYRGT
UniProt P08514, 32-887 limits assumed: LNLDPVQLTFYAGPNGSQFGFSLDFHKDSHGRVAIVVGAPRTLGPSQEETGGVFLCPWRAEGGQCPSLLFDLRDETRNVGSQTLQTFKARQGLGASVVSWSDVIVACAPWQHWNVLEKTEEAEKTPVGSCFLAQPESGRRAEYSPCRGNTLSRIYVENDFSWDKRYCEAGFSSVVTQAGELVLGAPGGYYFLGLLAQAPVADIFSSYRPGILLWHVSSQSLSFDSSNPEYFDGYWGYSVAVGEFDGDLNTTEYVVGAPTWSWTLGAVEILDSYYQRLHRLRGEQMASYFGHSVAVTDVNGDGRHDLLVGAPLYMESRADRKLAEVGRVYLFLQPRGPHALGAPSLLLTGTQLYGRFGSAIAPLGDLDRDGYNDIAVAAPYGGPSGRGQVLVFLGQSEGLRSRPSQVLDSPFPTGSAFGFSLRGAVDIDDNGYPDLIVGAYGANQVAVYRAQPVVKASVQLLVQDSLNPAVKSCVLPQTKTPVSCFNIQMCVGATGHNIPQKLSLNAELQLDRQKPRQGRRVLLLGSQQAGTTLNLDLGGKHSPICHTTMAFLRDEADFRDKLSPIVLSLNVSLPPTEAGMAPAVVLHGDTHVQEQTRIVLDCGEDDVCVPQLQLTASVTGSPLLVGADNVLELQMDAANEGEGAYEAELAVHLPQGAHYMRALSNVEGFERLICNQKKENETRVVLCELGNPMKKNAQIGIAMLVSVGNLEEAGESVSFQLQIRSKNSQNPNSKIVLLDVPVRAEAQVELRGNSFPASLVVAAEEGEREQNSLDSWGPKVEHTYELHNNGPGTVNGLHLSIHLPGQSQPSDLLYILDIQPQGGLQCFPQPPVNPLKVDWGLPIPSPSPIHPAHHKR
UniProt P08514, 891-1039 limits assumed: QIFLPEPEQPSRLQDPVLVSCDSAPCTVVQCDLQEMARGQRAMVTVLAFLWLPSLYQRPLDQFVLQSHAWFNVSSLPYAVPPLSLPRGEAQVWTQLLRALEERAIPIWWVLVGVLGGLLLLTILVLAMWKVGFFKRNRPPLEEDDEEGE

The target of this assay is T1, GPIIb-IIIa (Homo sapiens, UniProt P05106+P08514).
T1 construct: Purified platelet GPIIb-IIIa receptor was prepared as described by Fitzgerald; from tissue; host or cells: platelets
Nature of the assay: ELISA IIb-IIIa assay (fibrinogen binding to immobilized purified GPIIb-IIIa). The conditions noted are these: inhibition of fibrinogen binding to purified GPIIb-IIIa. As for the experimental part:
No. 1 - The ELISA IIb-IIIa Assay
PIIb-IIIa is coated onto microtiter plates. The coated support is then contacted with fibrinogen and with the test material (e.g., compounds of Formula I) and incubated for a sufficient time to permit maximal binding of fibrinogen to the immobilized GPIIb- Ila. Fibrinogen is typically provided at a concentration of about 5-50 nM and the test material can, if desired, be added at a series of dilution. Typical incubations are 2 to 4 hours at 25° C., the time and temperature being interdependent.
After incubation, the solution containing the fibrinogen and test material is removed and the level of binding of fibrinogen measured by quantitating bound fibrinogen to GPIIb-IIIa. Any suitable means of detection may be used, but it is convenient to employ labeled fibrinogen, for example using biotinylated labels. Such methods are well known in the art.
A. Description of Assays—Plate Assays
After purification, the receptors were stored in 0.1% Triton X-100 at 0.1-1.0 mg/ml. […]
The corresponding ligands (fibrinogen, von Willebrand Factor, or vitronectin) were conjugated to biotin using commercially available reagents and standard protocols. […] After incubation, the wells are aspirated to dryness and bound ligand is quantitated. […]
In general terms: An ELISA detects its analyte on a solid surface through an enzyme-linked reagent.

In the case of `Cc1ccc(S(=O)(=O)N[C@@H](CCC(=O)N2CCC3(CC2)CCN(c2ccncc2)CC3)C(=O)O)cc1` [Example 7, 2(S)-2-{[(4-methylphenyl)sulfonyl]amino}-5-oxo-5-[9-(4-pyridyl)-3,9-diazaspiro [5.5]undec-3-yl]pentanoic acid], the 50% inhibitory concentration (IC50) – broadly, the concentration needed to halve the response being measured – came to 2 nM.
